This is an account of results in patent US7655396B1, “Methods for detecting receptor modulator activity” (Allergan, Inc., priority 2006, dated 2010).

The EC50 is the concentration that produces a half-maximal response. Low values mean a more potent agent, high ones a less potent agent.

This experiment deals with T1, rat α 1B receptor (Rattus norvegicus, UniProt P15823).
T1 sequence (P15823 1-515): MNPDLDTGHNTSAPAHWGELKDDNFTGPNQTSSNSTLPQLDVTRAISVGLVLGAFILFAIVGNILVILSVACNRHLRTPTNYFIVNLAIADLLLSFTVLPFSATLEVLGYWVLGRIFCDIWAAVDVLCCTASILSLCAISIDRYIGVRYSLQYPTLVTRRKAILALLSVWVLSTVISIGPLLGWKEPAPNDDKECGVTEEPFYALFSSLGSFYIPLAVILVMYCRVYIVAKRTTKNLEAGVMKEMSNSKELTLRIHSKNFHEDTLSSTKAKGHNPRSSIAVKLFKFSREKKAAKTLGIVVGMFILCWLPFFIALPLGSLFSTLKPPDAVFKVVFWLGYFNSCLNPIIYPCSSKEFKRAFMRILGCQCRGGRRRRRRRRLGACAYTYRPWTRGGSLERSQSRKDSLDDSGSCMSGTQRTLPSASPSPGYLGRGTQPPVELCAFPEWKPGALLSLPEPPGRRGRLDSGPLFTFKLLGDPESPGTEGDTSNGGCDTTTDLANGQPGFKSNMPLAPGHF
The experiment in a line: cell-based.

Consider `Clc1ccc2nsnc2c1NC1=NCCN1` [Tizanidine], for which the 50% effective concentration (EC50) runs as follows: (EC50, 35° C., FIG. 6) 172 nM; (EC50, room temperature, FIG. 5) 1200 nM.
